Test: Pharmacokinetic study in SD rats after oral administration
Assay type: in vivo
Settings: cephalexin 50 mg/kg p.o. without and with OPC 15 mg/kg

difference between pharmacokinetic parameters of cephalexin without and with OPC: no significant differences
SMILES: CC1=C(C(=O)O)N2C(=O)[C@@H](NC(=O)[C@H](N)c3ccccc3)[C@H]2SC1 [Cephalexin]

Reference: paper PMC7032087 (Asian Journal of Pharmaceutical Sciences, 2016)
